Consider one molecule from patent US10815205B2, “Amide-substituted phenyltriazole derivatives and uses thereof” (BAYER PHARMA AKTIENGESELLSCHAFT, priority 2016, dated 2020).

Sequences of proteins named here, by UniProt entry; tags and fusion partners are left off.
UniProt P30518, whole entry: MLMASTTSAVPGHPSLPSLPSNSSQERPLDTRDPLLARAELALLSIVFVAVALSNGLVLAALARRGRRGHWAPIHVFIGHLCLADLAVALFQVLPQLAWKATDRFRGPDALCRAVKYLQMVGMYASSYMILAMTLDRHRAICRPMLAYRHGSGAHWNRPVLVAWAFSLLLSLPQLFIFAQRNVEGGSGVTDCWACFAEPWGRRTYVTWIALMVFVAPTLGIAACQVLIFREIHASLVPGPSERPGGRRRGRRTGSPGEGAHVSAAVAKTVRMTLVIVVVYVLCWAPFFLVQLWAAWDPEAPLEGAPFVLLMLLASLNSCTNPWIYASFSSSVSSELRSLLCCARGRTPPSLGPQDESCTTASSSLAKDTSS
UniProt P37288, whole entry: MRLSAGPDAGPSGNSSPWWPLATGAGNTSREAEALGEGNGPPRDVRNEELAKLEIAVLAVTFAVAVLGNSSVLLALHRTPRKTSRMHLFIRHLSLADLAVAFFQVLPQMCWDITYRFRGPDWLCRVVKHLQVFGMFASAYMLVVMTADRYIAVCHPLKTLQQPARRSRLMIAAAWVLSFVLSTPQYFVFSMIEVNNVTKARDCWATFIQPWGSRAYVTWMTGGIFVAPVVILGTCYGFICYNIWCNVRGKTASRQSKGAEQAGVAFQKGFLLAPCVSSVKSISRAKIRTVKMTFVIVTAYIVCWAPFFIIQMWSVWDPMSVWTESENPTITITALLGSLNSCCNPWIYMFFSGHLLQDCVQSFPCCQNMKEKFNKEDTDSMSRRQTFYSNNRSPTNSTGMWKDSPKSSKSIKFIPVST

The target of one assay is human V2 receptor (Homo sapiens, UniProt P30518). In words: Cellular in vitro assay for vasopressin receptor activity, V2 receptor cell line (CRE-luciferase). The settings on record: read-out: IC50 hV2, Table 1B, comparative examples of WO 2011/104322.
For the next assay, the target named is human V1a receptor (Homo sapiens, UniProt P37288). In words: Cellular in vitro assay for vasopressin receptor activity, V1a receptor cell line (aequorin luminescence). The note with it: Table 1B, comparative examples of WO 2011/104322.

For the molecule `O=c1n(Cc2cn(-c3ccccc3C(F)(F)F)nn2)nc(-c2ccc(Cl)cc2)n1C[C@H](O)C(F)(F)F`, the IC50 on human V2 receptor worked out at 218 nM; at human V1a receptor (read-out: IC50 hV1a, human V1a cell line) it was 139 nM. Besides, the “ratio IC50 hV2/hV1a” value at human V1a receptor is reported as 1.568.
